Measured values published in patent EP2695950A1, “Markers for responsiveness to an inhibitor of the fibroblast growth factor receptor” (Blackfield AG, priority 2012, dated 2014).

Legend:
[1] = tested on: cell lines with FGFR1 amplification expressing high amounts of FGFR and Myc; details: Figure 11; 1µM, over time
[2] = tested on: NIH3T3 cells co-expressing FGFR1 together with c-Myc; details: Figure 1; treatment with increasing concentrations; massive colony formation of FGFR1 + c-Myc cells
Procedure: Growth medium containing indicated compound concentrations was added on top.

H1581 cells = details: Figure 10; compared to control cell line H358

CCN(CC)CCCCNc1ncc2cc(-c3cc(OC)cc(OC)c3)c(NC(=O)NC(C)(C)C)nc2n1 [PD173074]
mitochondrial potential breakdown [1]: mitochondrial potential breakdown | colony formation in soft agar [2]: invertible | cytochrome c relase (H1581 cells): cytochrome c relase
